B1: GluA1 [mouse (endogenous in cultured hippocampal neurons)] / stargazin [not stated] (parent)
chain 1: ANFPNNIQIGGLFPNQQSQEHAAFRFALSQLTEPPKLLPQIDIVNISDSFEMTYRFCSQFSKGVYAIFGFYERRTVNMLTSFCGALHVCFITPSFPVDTSNQFVLQLRPELQEALISIIDHYKWQTFVYIYDADRGLSVLQRVLDTAAEKNWQVTAVNILTTTEEGYRMLFQDLEKKKERLVVVDCESERLNAILGQIVKLEKNGIGYHYILANLGFMDIDLNKFKESGANVTGFQLVNYTDTIPARIMQQWRTSDARDHTRVDWKRPKYTSALTYDGVKVMAEAFQSLRRQRIDISRRGNAGDCLANPAVPWGQGIDIQRALQQVRFEGLTGNVQFNEKGRRTNYTLHVIEMKHDGIRKIGYWNEDDKFVPAATDAQAGGDNSSVQNRTYIVTTILEDPYVMLKKNANQFEGNDRYEGYCVELAAEIAKHVGYSYRLEIVSDGKYGARDPDTKAWNGMVGELVYGRADVAVAPLTITLVREEVIDFSKPFMSLGISIMIKKPQKSKPGVFSFLDPLAYEIWMCIVFAYIGVSVVLFLVSRFSPYEWHSEEFEEGRDQTTSDQSNEFGIFNSLWFSLGAFMQQGCDISPRSLSGRIVGGVWWFFTLIIISSYTANLAAFLTVERMVSPIESAEDLAKQTEIAYGTLEAGSTKEFFRRSKIAVFEKMWTYMKSAEPSVFVRTTEEGMIRVRKSKGKYAYLLESTMNEYIEQRKPCDTMKVGGNLDSKGYGIATPKGSALRGPVNLAVLKLSEQGVLDKLKSKWWYDKGECGSKDSGSKDKTSALSLSNVAGVFYILIGGLGLAMLVALIEFCYKSRSESKRMKGFCLIPQQSINEAIRTSTLPRNSGAGASGGSGSGENGRVVSQDFPKSMQSIPCMSHSSGMPLGATGL
chain 2: MGLFDRGVQMLLTTVGAFAAFSLMTIAVGTDYWLYSRGVCKTKSVSENETSKKNEEVMTHSGLWRTCCLEGNFKGLCKQIDHFPEDADYEADTAEYFLRAVRASSIFPILSVILLFMGGLCIAASEFYKTRHNIILSAGIFFVSAGLSNIIGIIVYISANAGDPSKSDSKKNSYSYGWSFYFGALSFIIAEMVGVLAVHMFIDRHKQLRATARATDYLQASAITRIPSYRYRYQRRSRSSSRSTEPSHSRDASPVGVKGFNTLPSTEISMYTLSRDPLKAATTPTATYNSDRDNSFLQVHNCIQKDSKDSLHANTANRRTTPV
B2: GluA1 [mouse (endogenous in cultured hippocampal neurons)] / FLAG-tagged μ3 [mouse] (parent)
chain 1: B1 chain 1
chain 2: MIHSLFLINCSGDIFLEKHWKSVVSQSVCDYFFEAQEKAADVENVPPVISTPHHYLISIYRDKLFFVSVIQTEVPPLFVIEFLHRVADTFQDYFGECSEAAIKDNVVIVYELLEEMLDNGFPLATESNILKELIKPPTILRSVVNSITGSSNVGDTLPTGQLSNIPWRRAGVKYTNNEAYFDVVEEIDAIIDKSGSTVFAEIQGVIDACIKLSGMPDLSLSFMNPRLLDDVSFHPCIRFKRWESERVLSFIPPDGNFRLISYRVSSQNLVAIPVYVKHSISFKENSSCGRFDITIGPKQNMGKTIEGITVTVHMPKVVLNMNLTPTQGSYTFDPVTKVLAWDVGKITPQKLPSLKGLVNLQSGAPKPEENPNLNIQFKIQQLAISGLKVNRLDMYGEKYKPFKGVKYVTKAGKFQVRT
B3: GluA1 [mouse (endogenous in cultured hippocampal neurons)] / FLAG-tagged μ2 [mouse] (parent)
chain 1: B1 chain 1
chain 2: MIGGLFIYNHKGEVLISRVYRDDIGRNAVDAFRVNVIHARQQVRSPVTNIARTSFFHVKRSNIWLAAVTKQNVNAAMVFEFLYKMCDVMAAYFGKISEENIKNNFVLIYELLDEILDFGYPQNSETGALKTFITQQGIKSQHQTKEEQSQITSQVTGQIGWRREGIKYRRNELFLDVLESVNLLMSPQGQVLSAHVSGRVVMKSYLSGMPECKFGMNDKIVIEKQGKGTADETSKSGKQSIAIDDCTFHQCVRLSKFDSERSISFIPPDGEFELMRYRTTKDIILPFRVIPLVREVGRTKLEVKVVIKSNFKPSLLAQKIEVRIPTPLNTSGVQVICMKGKAKYKASENAIVWKIKRMAGMKESQISAEIELLPTNDKKKWARPPISMNFEVPFAPSGLKVRYLKVFEPKLNYSDHDVIKWVRYIGRSGIYETRC

Variants of: B1
Assay: coimmunoprecipitation (IP anti-GluA1, IB STG), band intensity quantified
Conditions: with stargazin; HEK293 cells coexpressing STG, GluA1 mutant and FLAG-µ2; bottom right chart; GluA1DDDD bar = 100; n.s.; read off a plot

Variant | screen value
chain 1 S816A S818A S831A S845A | 110

Same assay, conditions: with stargazin; HEK293 cells coexpressing STG, GluA1 mutant and FLAG-µ3; bottom right chart; GluA1DDDD bar = 100; n.s.; read off a plot

Variant | screen value
chain 1 S816A S818A S831A S845A | 95

Same assay, conditions: with stargazin; HEK293 cells coexpressing STG, GluA1 mutant and FLAG-µ2; bottom right chart; this bar is the normalisation reference (100); read off a plot

Variant | screen value
chain 1 S816D S818D S831D S845D | 100

Same assay, conditions: with stargazin; HEK293 cells coexpressing STG, GluA1 mutant and FLAG-µ3; bottom right chart; this bar is the normalisation reference (100); read off a plot

Variant | screen value
chain 1 S816D S818D S831D S845D | 100
chain 1 S816D S818D | 100
chain 1 S816D S818D S831A S845A | 100

Same assay, conditions: with stargazin; HEK293 cells coexpressing STG, GluA1 mutant and FLAG-µ3; bottom right chart; GluA1DD bar = 100; n.s.; read off a plot

Variant | screen value
chain 1 S816A S818A | 120

Same assay, conditions: with stargazin; HEK293 cells coexpressing STG, GluA1 mutant and FLAG-µ3; bottom right chart; GluA1DDAA bar = 100; n.s.; read off a plot

Variant | screen value
chain 1 S816A S818A S831D S845D | 83

Variants of: B2
Assay: coimmunoprecipitation (IP anti-GluA1, IB FLAG), band intensity quantified
Conditions: with FLAG-tagged μ3 [mouse]; HEK293 cells coexpressing STG, GluA1 mutant and FLAG-µ3; normalised to GluA1DD = 100; n = 5; p < 0.01; read off a plot

Variant | screen value
chain 1 S816A S818A | 150 % of GluA1DD

Same assay, conditions: with FLAG-tagged μ3 [mouse]; HEK293 cells coexpressing STG, GluA1 mutant and FLAG-µ3; normalised to GluA1DDAA = 100; n = 6; p < 0.05; read off a plot

Variant | screen value (% of GluA1DDAA)
chain 1 S816A S818A S831D S845D | 130

Same assay, conditions: with FLAG-tagged μ3 [mouse]; HEK293 cells coexpressing STG, GluA1 mutant and FLAG-µ3; normalised to GluA1DDDD = 100; n = 4; p < 0.05; read off a plot

Variant | screen value (% of GluA1DDDD)
chain 1 S816A S818A S831A S845A | 150

Same assay, conditions: with FLAG-tagged μ3 [mouse]; HEK293 cells coexpressing STG, GluA1 mutant and FLAG-µ3; this bar is the normalisation reference (set to 100); n = 4; read off a plot

Variant | screen value (% of GluA1DDDD)
chain 1 S816D S818D S831D S845D | 100

Same assay, conditions: with FLAG-tagged μ3 [mouse]; HEK293 cells coexpressing STG, GluA1 mutant and FLAG-µ3; this bar is the normalisation reference (set to 100); n = 5; read off a plot

Variant | screen value
chain 1 S816D S818D | 100 % of GluA1DD

Same assay, conditions: with FLAG-tagged μ3 [mouse]; HEK293 cells coexpressing STG, GluA1 mutant and FLAG-µ3; this bar is the normalisation reference (set to 100); n = 6; read off a plot

Variant | screen value (% of GluA1DDAA)
chain 1 S816D S818D S831A S845A | 100

Variants of: B3
Assay: as above
Conditions: with FLAG-tagged μ2 [mouse]; HEK293 cells coexpressing STG, GluA1 mutant and FLAG-µ2; normalised to GluA1DDDD = 100; n = 4; n.s.; read off a plot

Variant | screen value (% of GluA1DDDD)
chain 1 S816A S818A S831A S845A | 93

Same assay, conditions: with FLAG-tagged μ2 [mouse]; HEK293 cells coexpressing STG, GluA1 mutant and FLAG-µ2; this bar is the normalisation reference (set to 100); n = 4; read off a plot

Variant | screen value (% of GluA1DDDD)
chain 1 S816D S818D S831D S845D | 100

Reference: paper PMC8335659
